The numbers were not newly measured in patent US20210009613A1, “ARYLPHOSPHINE OXIDES FOR INHIBITING KINASE ACTIVITY” (Shenzhen TargetRx, Inc., priority 2017, published 2021), which cites them from elsewhere.

The subject of this data set is ALK+NSCLC. Particulars: cited from earlier work.

With `C[C@@H](Oc1cc(-c2cnn(C3CCNCC3)c2)cnc1N)c1c(Cl)ccc(F)c1Cl` [Crizotinib], the “ALK-positive patients with no objective response at the beginning of therapy” value (ALK-positive patients) is on record as “About 40%”. Besides, for the setting “patients with ALK+NSCLC”, the median progression-free survival is 8-11 months and the objective response rate is 60-74%.
